Earlier results in patent publication US20220331213A1, “ANTIMICROBIAL COMPOSITIONS COMPRISING A BENZOIC ACID ANALOG AND ACID PH BUFFERS” (eHealth Nexus LLC, priority 2021, published 2022).

In the case of copper gluconate, the solubility in ethanol (ethanol) is given as “insoluble” and the solubility in water (water) is given as “easily soluble”.
